According to ChEMBL document CHEMBL1157805, “Virtual screening, selection and development of a benzindolone structural scaffold for inhibition of lumazine synthase” (Bioorg Med Chem, 2010):

Tested on: Mycobacterium tuberculosis
Test: Activity at Mycobacterium tuberculosis recombinant riboflavin synthase after 30 mins by fluorescence assay
In short: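 Recombinant M. tuberculosis riboflavin synthase (1 μM) in 100 mM Tris-HCl pH 7.0, 100 mM NaCl, 5 mM DTT, 2% DMSO. 6,7-Dimethyl-8-ribityllumazine substrate was varied 3–60 μM and inhibitor 0–200 μM. Reactions were started with substrate. Riboflavin formation was monitored at 470 nm for 30 min at 27 °C. Velocity–substrate data for all inhibitor levels were fitted by nonlinear regression to alternative inhibition models.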

`O=C1Nc2ccc(S(=O)(=O)NCCCCC(F)(F)P(=O)(O)O)c3cccc1c23` showed a kcat of 0.0025 s⁻¹.
